Values quoted from earlier work as cited in article PMC2361662 (British Journal of Cancer, 2005).

Biological target: T1, EGFRvIII (Homo sapiens, UniProt P00533, DELINS30-297G)
T1 construct: expressed in transfected cells; host or cells: NR6M (derivative of NR6 fibroblasts)
Design: method as in Montgomery, 2002
Settings: dimers had increased phosphotyrosine load; ref Montgomery, 2002; cited from earlier work

## COc1cc2ncnc(Nc3cccc(Cl)c3)c2cc1OC [AG1478]
  Concentration range inducing dimers of EGFRvIII: 0.001 to 0.01 µM
